This test has as its system HeLa. The test can be described thus: Cytotoxicity against human HeLa cells assessed as reduction in cell viability measured after 48 hrs by MTT assay. Format: functional, cell-based.

Take `CO[C@H]1[C@H](O[C@@H]2C[C@@H]3C/C=C/C(=O)O[C@H](CO)C[C@H](O)[C@@H]4C[C@H](C)[C@H](C/C=C\C=C\[C@H](C)C[C@H](C2)O3)O4)O[C@@H](C)[C@H](O)[C@H]1O`: the Activity entry was “Dose-dependent effect”.

(Values after ChEMBL document CHEMBL4028855, “New Mandelalides Expand a Macrolide Series of Mitochondrial Inhibitors” (J Med Chem, 2017).)
